Where no end group is shown, it is not given here. [ ]: non-standard residue; d: D form.
Key:
[1] = test system: BCR/ABL-associated tyrosine kinase activity; assay: Anti-phosphotyrosine immunoblotting of AG957 treated K562 cells; settings: 20 μM AG957, four hours
8226 myeloma cells = assay: Microtiter adhesion assay, adhesion of 8226 cells to fibronectin; settings: 1.25 μg/ml to 20 μg/ml for 30 minutes before plating, FIG. 27

## COC(=O)c1ccc(NCc2cc(O)ccc2O)cc1 [AG957]
[1]
  BCR/ABL associated tyrosine phosphorylation: abrogates all phosphotyrosine activity with the exception of the 80kda protein

## kmviywkag ([dK][dM][dV][dI][dY][dW][dK][dA]G) [RZ-3]
8226 myeloma cells
  effect on adhesion of 8226 cells to FN: effective in preventing FN adhesion

— patent publication US7253149B2, “Compounds and methods for modulating cell-adhesion mediated drug resistance” (University of South Florida, priority 2000, dated 2007)
